## Binding of CDR-mutated scFvs to a peptide of the spike HR2 region

From the AlphaSeq antibody data of Engelhart et al. 2022 (doi:10.1038/s41597-022-01779-4), copy in the FLAb collection.

Antigen: PDVDLGDISGINAS, a 14-residue peptide of the SARS-CoV-2 spike HR2 region.

Parent: Ab-14, a human scFv built as VH, three GGGGS repeats, VL. Only the CDRs of the heavy chain vary.
VH: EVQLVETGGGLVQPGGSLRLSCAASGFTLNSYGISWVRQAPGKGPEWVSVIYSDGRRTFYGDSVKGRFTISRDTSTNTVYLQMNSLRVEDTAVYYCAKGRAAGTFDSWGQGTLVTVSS
VL: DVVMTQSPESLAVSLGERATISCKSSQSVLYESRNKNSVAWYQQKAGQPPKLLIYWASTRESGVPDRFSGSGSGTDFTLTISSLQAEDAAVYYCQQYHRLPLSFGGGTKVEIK

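In library AAYL49, one, two or three CDR residues were substituted; doubles and triples were drawn at random. The assay is AlphaSeq: two haploid yeast populations carry antibody and antigen on their surface. After mating in shaken culture at 30 °C for 16 h, diploids were selected and their barcode pairs sequenced. The ratio of observed to expected reads was calibrated, replicate by replicate, on BCL2-family standards whose Kd was known from biolayer interferometry. Mating was done three times.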

Each variant's VH is given in full.
All variants listed here change G26 of the VH, counted from its first residue.
The Kd shown is the geometric mean over detected replicates; a lower Kd is a better binder.
An entry "nd" has no value in the source: the pair was not observed among the diploids in any replicate. This suggests poor binding but is not conclusive.
As a blank, each scFv also met three strains without target: over library AAYL49, 15% of these pairings were detected, typically at 11 µM and seldom below 680 nM.

- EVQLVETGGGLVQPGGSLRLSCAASLFELNSYGISWVRQAPGKGPEWVSVIYSDGRRTFYGDSVKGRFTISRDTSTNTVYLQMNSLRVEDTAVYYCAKGRAAGTRDSWGQGTLVTVSS: 820 nM (3 of 3 replicates)
- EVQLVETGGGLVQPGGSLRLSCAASFFTLNSYGISWVRQAPGKGPEWVSVQYSDGRRTFYGDSVKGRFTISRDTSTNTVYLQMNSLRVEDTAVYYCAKGAAAGTFDSWGQGTLVTVSS: nd (0 of 3 replicates)
- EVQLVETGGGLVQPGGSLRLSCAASQFTLFSYGISWVRQAPGKGPEWVSVIYSDGRRTFYGDSVKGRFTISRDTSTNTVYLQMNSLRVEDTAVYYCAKGRAAGTFMSWGQGTLVTVSS: 5.7 µM (3 of 3 replicates)
- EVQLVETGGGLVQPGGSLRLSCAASRFTLNSKGISWVRQAPGKGPEWVSVIYSVGRRTFYGDSVKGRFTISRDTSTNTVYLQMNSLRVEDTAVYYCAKGRAAGTFDSWGQGTLVTVSS: nd (0 of 3 replicates)
- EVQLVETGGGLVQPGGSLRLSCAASTFTLNSYGISWVRQAPGKGPEWVSVIYSDGRRTFYGDSVKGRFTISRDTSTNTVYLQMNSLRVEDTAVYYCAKGRAAGTFDSWGQGTLVTVSS: 93 µM (3 of 3 replicates)
- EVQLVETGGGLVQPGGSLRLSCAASEFTLNSYGISWVRQAPGKGPEWVSVIYSCGRRTWYGDSVKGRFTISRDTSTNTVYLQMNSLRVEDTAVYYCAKGRAAGTFDSWGQGTLVTVSS: 91 µM (2 of 3 replicates)
- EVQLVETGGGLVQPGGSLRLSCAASHFTLNSYGISWVRQAPGKGPEWVSHIYSDGRRTFYTDSVKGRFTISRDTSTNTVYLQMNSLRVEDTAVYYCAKGRAAGTFDSWGQGTLVTVSS: nd (0 of 3 replicates)
- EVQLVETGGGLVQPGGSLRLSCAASAFTLNSYGISWVRQAPGKGPEWVSVIYSDDRRTFYGDSVKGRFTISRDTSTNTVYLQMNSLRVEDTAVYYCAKGRAAGTFDSWGQGTLVTVSS: nd (0 of 3 replicates)
- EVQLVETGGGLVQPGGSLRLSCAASLFTLNSYCISWVRQAPGKGPEWVSVIYSDGRRTFYGDSVKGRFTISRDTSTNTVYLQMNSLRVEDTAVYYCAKGRAANTFDSWGQGTLVTVSS: nd (0 of 3 replicates)
- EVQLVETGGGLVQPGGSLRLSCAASKFTLNSYGISWVRQAPGKGPEWVSVIYSDGRRTFYGASVKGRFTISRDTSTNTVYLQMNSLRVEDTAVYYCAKGRAAGTFNSWGQGTLVTVSS: nd (0 of 3 replicates)
- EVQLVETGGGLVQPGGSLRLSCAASMFTLNSYGISWVRQAPGKGPEWVSAIYSDKRRTFYGDSVKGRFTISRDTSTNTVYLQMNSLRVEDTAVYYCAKGRAAGTFDSWGQGTLVTVSS: 35 µM (2 of 3 replicates)
- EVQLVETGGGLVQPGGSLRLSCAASAFTLNSYGISWVRQAPGKGPEWVSVIYSDGRRTFYGDSVMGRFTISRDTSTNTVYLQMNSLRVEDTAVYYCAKGRAAGTFDSWGQGTLVTVSS: 190 nM (3 of 3 replicates)
- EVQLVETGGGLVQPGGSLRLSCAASDFTLNSYGISWVRQAPGKGPEWVSVIYSDGRRTPYGDSYKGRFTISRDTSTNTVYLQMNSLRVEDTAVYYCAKGRAAGTFDSWGQGTLVTVSS: 170 µM (1 of 3 replicates)
- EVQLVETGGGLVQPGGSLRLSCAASWFTLNSYGISWVRQAPGKGPEWVSVIHSDGIRTFYGDSVKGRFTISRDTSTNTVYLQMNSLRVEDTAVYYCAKGRAAGTFDSWGQGTLVTVSS: nd (0 of 3 replicates)
- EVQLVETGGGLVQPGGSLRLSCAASWFMLNSYGISWVRQAPGKGPEWVSVIYSDGRRTFYGDSVKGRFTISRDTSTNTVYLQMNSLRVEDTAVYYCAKIRAAGTFDSWGQGTLVTVSS: 640 nM (1 of 3 replicates)
- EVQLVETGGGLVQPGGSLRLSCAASAFTLNSYGISWVRQAPGKGPEWVSVIYSDGFRTFYMDSVKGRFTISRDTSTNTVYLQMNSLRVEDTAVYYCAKGRAAGTFDSWGQGTLVTVSS: nd (0 of 3 replicates)

For reference, 3 entries of the list once more:

VH,Kd,detected
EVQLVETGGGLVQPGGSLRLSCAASAFTLNSYGISWVRQAPGKGPEWVSVIYSDGRRTFYGDSVMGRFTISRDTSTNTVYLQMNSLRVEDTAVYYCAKGRAAGTFDSWGQGTLVTVSS,190 nM,3 of 3
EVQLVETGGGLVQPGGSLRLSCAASDFTLNSYGISWVRQAPGKGPEWVSVIYSDGRRTPYGDSYKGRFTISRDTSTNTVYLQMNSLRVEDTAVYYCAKGRAAGTFDSWGQGTLVTVSS,170 µM,1 of 3
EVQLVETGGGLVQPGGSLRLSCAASEFTLNSYGISWVRQAPGKGPEWVSVIYSCGRRTWYGDSVKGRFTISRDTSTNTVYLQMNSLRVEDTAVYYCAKGRAAGTFDSWGQGTLVTVSS,91 µM,2 of 3

Parent in this assay: reference entry 4.4 nM, copy in this library 13 µM (one replicate of three).